The values below come from patent US20210299101A1, “SYSTEMS, METHODS, AND KITS FOR DIAGNOSTICS AND TREATMENT OF VIRAL RESPIRATORY INFECTION” (priority 2020, published 2021).

The test system of assay [1] is SARS-CoV-2. Format: in vivo.
Assay [2] deals with SARS-CoV-2. Format: in vivo. The source holds these as a separate data set.
The mark [3] stands for this setting: Brescia-COVID Respiratory Severity Scale, admitted patients only.

Like-named read-outs stand apart in the source and are kept apart here.

In the case of `CNC(=O)c1ccc(N2C(=S)N(c3ccc(C#N)c(C(F)(F)F)c3)C(=O)C2(C)C)cc1F` [enzalutamide], the “average BCRSS score of admitted patients” value in the assay on SARS-CoV-2 [1] (setting [3]) and in the assay with SARS-CoV-2 [2] (setting [3]) was 6.2 each time. In addition, the “subjects admitted to the hospital after their first visit” value is given as 11 subjects in the assay with SARS-CoV-2 [1] (monitored one month, enzalutamide 40 mg 4 tablets daily, each arm of 100) and 14 subjects in the assay on SARS-CoV-2 [2] (monitored one month, enzalutamide 40 mg 4 tablets daily, combination arm of 180, enzalutamide only group of 160).
